Laboratory results as given in US8324235B2, “Heterocyclic spiro-compounds” (Novartis AG, priority 2007, dated 2012).

The chains behind the UniProt entries cited, without tags or fusion partners.
UniProt P11511, whole entry: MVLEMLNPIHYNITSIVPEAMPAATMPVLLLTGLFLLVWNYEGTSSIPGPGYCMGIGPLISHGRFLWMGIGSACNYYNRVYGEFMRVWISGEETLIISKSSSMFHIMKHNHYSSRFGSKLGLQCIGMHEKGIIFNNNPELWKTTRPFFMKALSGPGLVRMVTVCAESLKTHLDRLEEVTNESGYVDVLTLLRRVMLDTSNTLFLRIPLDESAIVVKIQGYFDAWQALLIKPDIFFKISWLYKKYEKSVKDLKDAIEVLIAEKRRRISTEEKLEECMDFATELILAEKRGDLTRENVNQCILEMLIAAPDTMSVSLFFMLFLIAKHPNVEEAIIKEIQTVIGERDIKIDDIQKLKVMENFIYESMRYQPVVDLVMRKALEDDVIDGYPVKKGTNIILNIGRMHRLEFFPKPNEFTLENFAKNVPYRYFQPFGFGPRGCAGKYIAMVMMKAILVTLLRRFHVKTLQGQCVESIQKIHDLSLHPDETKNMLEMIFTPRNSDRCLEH

Biological target: recombinant human Cyp19 enzyme (aromatase) (Homo sapiens, UniProt P11511)
Test: Cyp19/MFC high throughput aromatase inhibition kit
Conditions: read-out: IC50 value (aromatase inhibition), average of several measurements
Method: The compounds of the formula (I′) have at least one asymmetric carbon atom, which is labelled “*”. A compound of the formula (I′) is to be understood as a compound having a specific configuration around the designated asymmetric carbon atom. If a synthesis method is used which leads to racemic compounds, the racemate resolution is carried out in accordance with conventional methods, such as via a chiral HPLC column. […] The aforementioned aromatase inhibitory activity can, as the skilled worker is well aware and as described below, be comfortably determined via the commercial Cyp19 enzyme inhibition kit (vide infra). In the abovementioned inhibition kit, compounds of the formula (I′) have an activity which is at least 10 times lower, preferably 20 times lower than the compounds of the formula (I′) with the opposite configuration around the asymmetric carbon atom labelled “*”.
The enzyme aromatese (CYP19) mediates the rate-limiting step of estrogen biosynthesis in human and rodent species. […]
The concentration-dependent interference of the compounds with aromatase can be measured in vitro using a commercial Cyp19 enzyme inhibition kit and the manufacturer's instructions. […]

With `N#Cc1ccc2c(c1)OCC21CCCn2cncc21` (stereo not shown) the IC50 was 11.8 nM.
